Paper PMC12845312, “Hydrazonylthiazole Derivatives as Dual EGFR and ALR2 Inhibitors: Design, Synthesis, and Comprehensive In Vitro and In Silico Evaluation for Potential Anticancer Activity” (Pharmaceuticals, 2025)

System: peripheral blood mononuclear cells (PBMCs)
Experiment: MTT cytotoxicity assay in PBMCs (selectivity)
Type: cell-based
Conditions: IC50 for PBMC/IC50 for Jurkat cell line
Method: A549 (ATCC, Manassas, VA, USA) and MCF-7 (ATCC, VA, USA) cells were grown in Dulbecco’s Modified Eagle Medium (DMEM; Wako, Osaka, Japan) containing 10% fetal bovine serum (FBS; Equitech-Bio, Kerrville, TX, USA). Jurkat T-cells (ATCC, VA, USA) were maintained in RPMI-1640 medium (Wako Pure Chemical Industries, Osaka, Japan) supplemented with 10% FBS, while PBMCs (Precision Bioservices, Frederick, MD, USA) were expanded in the same medium supplemented with 10% human AB serum (Gemini, Woodland, CA, USA). Streptomycin was added to all culture media at a final concentration of 89 µg/mL (Meiji Seika Pharma, Tokyo, Japan). All cells were kept at 37 °C under humidified conditions with 5% CO2. For viability measurements, A549 and MCF-7 cells were seeded into 24-well plates, whereas PBMCs were dispensed into 96-well plates (Iwaki, Asahi Glass, Chiba, Japan) at initial densities of 4 × 10^4 cells/mL and 5 × 10^5 cells/mL, respectively. […] Concentrated stock solutions were prepared in dimethyl sulfoxide (DMSO; Wako Pure Chemical Industries) and diluted with culture medium to final assay concentrations ranging from […]. The DMSO content was kept constant at 1% in all wells. Cell viability was assessed using the MTT colorimetric assay (Dojindo, Kumamoto, Japan), following established procedures with minor protocol refinements previously reported in the literature.

Compound: CS(=O)(=O)CCNCc1ccc(-c2ccc3ncnc(Nc4ccc(OCc5cccc(F)c5)c(Cl)c4)c3c2)o1 [Lapatinib, lapatinib, reference compound]
- SI (Selectivity Index): 7.25
